The subject of this experiment is Plasmodium vivax. The experiment can be described thus: Radical cure efficacy: any P. vivax recurrence within 4 months in patients, pooled DETECTIVE part 1/2 and GATHER (logistic regression and Emax models). The experiment is classed as in vivo, human. To be noted: logistic regression; 95% CI 0.66–0.78. The source says: The primary endpoint for the main efficacy analyses was any P. vivax recurrence within 4 months. We chose the binary endpoint of any recurrence rather than the time to first recurrence because tafenoquine has both asexual stage antimalarial activity ([Fukuda et al., 2017]) and hypnozoiticidal activity. […] The choice of a particular cut-off for follow-up is thus a trade-off between sensitivity and specificity. Longer follow-up will increase the sensitivity of the endpoint (include more relapses) but decrease specificity (include more reinfections).
For all predictors we fitted Bayesian mixed effects logistic regression models (random intercepts for study and study site), with adjustment for day 0 parasitaemia (log transformed). […]
For the mg/kg dose (the primary predictor of interest), the dose-response relationship was then assessed under a Bayesian Emax model, where the dose-dependent logit probability of recurrence is defined as: Emax(d,x)=α+βx+δd^k/d^k+γ^k, […]
In a priori sensitivity analyses, all recurrences up until 6 months were included as both binary and time to event outcomes. The time to first recurrence was defined as a P. vivax episode between day 7 and day 180 with right censoring at the last recorded visit. […]

As for `COc1cc(NC(C)CCCN)c2ncccc2c1` (stereo not shown) [primaquine], the “odds ratio for recurrence within 4 months per 0.7 mg/kg increase in the total primaquine dose” value is reported as 0.72.

For the origin of these results see publication PMC9725750, “The clinical pharmacology of tafenoquine in the radical cure of Plasmodium vivax malaria: An individual patient data meta-analysis” (eLife, 2022).
